This note sets out measurements from patent US20090099157A1, “TETRAHYDRO-PYRAZOLO-PYRIDINE THIOETHER MODULATORS OF CATHEPSIN S” (priority 2007, published 2009).

Amino acid sequences for entries named in this document (tags omitted). Residues count along the entry.
UniProt P25774, 115-331: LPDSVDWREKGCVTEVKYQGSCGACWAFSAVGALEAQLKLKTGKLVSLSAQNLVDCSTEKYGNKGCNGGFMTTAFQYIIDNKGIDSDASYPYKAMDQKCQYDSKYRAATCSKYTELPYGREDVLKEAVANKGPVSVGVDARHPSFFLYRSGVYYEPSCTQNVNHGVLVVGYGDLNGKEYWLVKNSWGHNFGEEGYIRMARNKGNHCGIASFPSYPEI

The assay deals with Recombinant human cathepsin S (CatS) (Homo sapiens, UniProt P25774). Description: biochemical.

The term IC50 denotes the concentration that gives 50% inhibition.

Take `CS(=O)(=O)N1CCc2c(c(-c3ccc(C(F)(F)F)c(SCCN4CCCC4)c3)nn2CC(O)CN2CCC3(CC2)OCCCO3)C1` (centres unmarked) [Example 601, 1-(1,5-Dioxa-9-azaspiro[5.5]undec-9-yl)-3-[5-(methylsulfonyl)-3-{3-[(2-pyrrolidin-1-ylethyl)sulfanyl]-4-(trifluoromethyl)phenyl}-4,5,6,7-tetrahydro-1H-pyrazolo[4,3-c]pyridin-1-yl]propan-2-ol]: the IC50 was 0.53 µM.
In the case of `CC(C)(C)OC(=O)NCC(=O)NCCSc1cc(-c2nn(CC(O)CN3CCC(N4CCCC4=O)CC3)c3c2CN(S(C)(=O)=O)CC3)ccc1C(F)(F)F` (centres unmarked) [Example 117, ({2-[5-(1-{2-Hydroxy-3-[4-(2-oxo-pyrrolidin-1-yl)-piperidin-1-yl]-propyl}-5-methanesulfonyl-4,5,6,7-tetrahydro-1H-pyrazolo[4,3-c]pyridin-3-yl)-2-trifluoromethyl-phenylsulfanyl]-ethylcarbamoyl}-methyl)-carbamic acid tert-butyl ester] it was 0.2 µM; in that of `CSCC(=O)N1CCc2c(c(-c3ccc(C(F)(F)F)c(SCCN4CCC(F)CC4)c3)nn2CC(O)CN2CCCCC2)C1` (centres unmarked) [Example 442, 1-{3-[3-{[2-(4-Fluoropiperidin-1-yl)ethyl]sulfanyl}-4-(trifluoromethyl)phenyl]-5-[(methylsulfanyl)acetyl]-4,5,6,7-tetrahydro-1H-pyrazolo[4,3-c]pyridin-1-yl}-3-piperidin-1-ylpropan-2-ol], 0.2 µM; in that of `CS(=O)(=O)N1CCc2c(c(-c3ccc(C(F)(F)F)c(SCC(=O)N4CC[C@H](O)C4)c3)nn2CC(O)CN2CCCCC2)C1` (stereo partly drawn) [Example 389, (3S)-1-[({5-[1-(2-Hydroxy-3-piperidin-1-ylpropyl)-5-(methylsulfonyl)-4,5,6,7-tetrahydro-1H-pyrazolo[4,3-c]pyridin-3-yl]-2-(trifluoromethyl)phenyl}sulfanyl)acetyl]pyrrolidin-3-ol], 0.22 µM.
As to `CS(=O)(=O)N1CCc2c(c(-c3ccc(C(F)(F)F)c(SCCNCCc4ccccc4)c3)nn2CCCN2CCC(N3CCCC3=O)CC2)C1` [Example 767, 1-[1-(3-{5-(Methylsulfonyl)-3-[3-({2-[(2-phenylethyl)amino]ethyl}sulfanyl)-4-(trifluoromethyl)phenyl]-4,5,6,7-tetrahydro-1H-pyrazolo[4,3-c]pyridin-1-yl}propyl)piperidin-4-yl]pyrrolidin-2-one], the half-inhibitory concentration (IC50) is 0.43 µM.
For `O=C(CO)N1CCc2c(c(-c3ccc(C(F)(F)F)c(SCCN4CCCCC4)c3)nn2CC(O)CN2CCC(c3ccccn3)CC2)C1` (centres unmarked) [Example 599, 1-[5-(Hydroxyacetyl)-3-{3-[(2-piperidin-1-ylethyl)sulfanyl]-4-(trifluoromethyl)phenyl}-4,5,6,7-tetrahydro-1H-pyrazolo[4,3-c]pyridin-1-yl]-3-(4-pyridin-2-ylpiperidin-1-yl)propan-2-ol] the value was 0.01 µM; for `CS(=O)(=O)N1CCc2c(c(-c3ccc(C(F)(F)F)c(SCC(=O)N4CCCC4)c3)nn2CC(O)CN2CCC(N3CCOCC3)CC2)C1` (centres unmarked) [Example 263, 1-[5-(Methylsulfonyl)-3-{3-[(2-oxo-2-pyrrolidin-1-ylethyl)sulfanyl]-4-(trifluoromethyl)phenyl}-4,5,6,7-tetrahydro-1H-pyrazolo[4,3-c]pyridin-1-yl]-3-(4-morpholin-4-ylpiperidin-1-yl)propan-2-ol], 0.14 µM.
On to `CS(=O)(=O)N1CCc2c(c(-c3ccc(C(F)(F)F)c(SCCN4CC=CCC4)c3)nn2CCCN2CCC(N3CCCC3=O)CC2)C1` [Example 14, 1-{1-[3-(3-{3-[2-(3,6-Dihydro-2H-pyridin-1-yl)-ethylsulfanyl]-4-trifluoromethyl-phenyl}-5-methanesulfonyl-4,5,6,7-tetrahydro-pyrazolo[4,3-c]pyridin-1-yl)-propyl]-piperidin-4-yl}-pyrrolidin-2-one], for which the IC50 was found to be 0.15 µM.
